Experimental data published in PubChem BioAssay AID602440 (Sanford-Burnham Center for Chemical Genomics, 2012).
The entries are a selection whose mix differs from that of the whole data set. Calls of active or inactive are those of the source. No stated cut-off is given here; in the data, active means inhibition mostly above about 40% (no sharp cut-off); inactive means mostly below about 27%.

Sequences of proteins named here, by UniProt entry; tags and fusion partners are left off.
UniProt Q96LD8, whole entry: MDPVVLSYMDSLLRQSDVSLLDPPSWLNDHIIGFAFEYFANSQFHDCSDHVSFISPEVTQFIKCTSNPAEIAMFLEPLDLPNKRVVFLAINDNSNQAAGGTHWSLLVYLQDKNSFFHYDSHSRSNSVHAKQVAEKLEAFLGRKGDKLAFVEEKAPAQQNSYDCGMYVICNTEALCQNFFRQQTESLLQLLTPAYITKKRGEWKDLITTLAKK

molecular target: Sentrin-specific protease 8 (Homo sapiens) (UniProt Q96LD8); test: human SENP8 protease inhibitors, primary screen, biochemical, fluorescence, Nedd8 protein substrate, uHTS (AID 602440); details: recombinant SENP8, Nedd8 substrate fluorescence; at 20 µM; active compounds read high

Row | SMILES | inhibition
1 | CCOC(=O)c1ccc(NP(C)(=O)Oc2ccc(Cl)cc2)cc1 (configuration not stated) | inactive: 12.6%
2 | CP(=O)(OC12CC3CC(CC(C3)C1)C2)OC12CC3CC(CC(C3)C1)C2 | inactive: -1.7%
3 | CCN(CC)CC(O)COC(=O)C(O)(c1ccccc1)C1CCCCC1 (configuration not stated) | inactive: 1.5%
4 | COc1ccc(OP(C)(=O)Nc2ccc(Br)cc2)cc1 (configuration not stated) | inactive: 15.2%
5 | COc1ccccc1OP(C)(=O)Nc1c(C)n(C)n(-c2ccccc2)c1=O (configuration not stated) | inactive: 21.2%
6 | O=C(OCCCN1CCCC1)C(O)(c1ccccc1)C1CCCCC1 (configuration not stated) | inactive: 4.9%
7 | CP(=O)(Oc1ccccc1)N1CCOC1=O (configuration not stated) | inactive: 12%
8 | CCc1ccc(OP(C)(=O)Nc2cccnc2)cc1 (configuration not stated) | inactive: 7.5%
9 | CC(C)(C)c1ccc(OP(C)(=O)O)cc1 | inactive: 8.8%
10 | COc1ccccc1OP(C)(=O)Nc1ccccc1Br (configuration not stated) | inactive: 8.8%
11 | CP(=O)(Nc1ccc(Cl)cc1)Oc1ccc(F)cc1 (configuration not stated) | inactive: 10.1%
12 | CN(C)C(=O)c1c([N+](=O)[O-])cc([N+](=O)[O-])cc1[N+](=O)[O-] | active: 44.9%
13 | COc1ccccc1OP(C)(=O)Nc1ccc(Br)cc1 (configuration not stated) | inactive: 23.4%
14 | COc1ccc(OP(C)(=O)Nc2ccccn2)cc1 (configuration not stated) | inactive: 12.2%
15 | CN(C)CCOC(=O)C(O)(c1ccccc1)C1CCCC1 (configuration not stated) | inactive: 10.2%
16 | O=[N+]([O-])c1cc([N+](=O)[O-])c(Nc2ccccn2)c([N+](=O)[O-])c1 | active: 46%
17 | Cc1c(NP(C)(=O)Oc2ccc(C(C)C)cc2)c(=O)n(-c2ccccc2)n1C (configuration not stated) | inactive: 24.1%
18 | CP(=O)(Nc1ccccn1)Oc1ccccc1 (configuration not stated) | inactive: 6.9%
19 | COc1ccccc1OP(C)(=O)Nc1ccc(C)cc1C (configuration not stated) | inactive: 33.1%
20 | CCc1ccc(OP(C)(=O)O)cc1 | inactive: 10.1%
21 | O=C1C(O)=C([N+](=O)[O-])C(=O)C(O)=C1[N+](=O)[O-] | inactive: -1.4%
22 | Cc1cc(C)cc(OP(C)(=O)Nc2cccc(C(F)(F)F)c2)c1 (configuration not stated) | inactive: 7.6%
23 | COc1ccccc1OP(C)(=O)Nc1ccc(C)c(C)c1 (configuration not stated) | inactive: 12.2%
24 | COc1ccc(OP(C)(=O)Nc2ccccc2Br)cc1 (configuration not stated) | inactive: -2.4%

Row | SMILES | inhibition
25 | CP(=O)(OCCOc1ccccc1)OCCOc1ccccc1 | inactive: -1.5%
26 | CCCCCCCCCCCCCCCC1C[N+](C)(C)CCOP(C)(=O)O1 (configuration not stated) | inactive: 11.5%
27 | CP(=O)(Nc1ccc(Cl)cc1Cl)Oc1ccccc1 (configuration not stated) | inactive: -6.6%
28 | O=[N+]([O-])c1cc([N+](=O)[O-])c(Nc2cccnc2)c([N+](=O)[O-])c1 | active: 52.6%
29 | O=[N+]([O-])c1ccc2c(c1)C=Nc1ccccc1O2 | inactive: 15.6%
30 | CC(C)(C)c1ccc(OP(C)(=O)Nc2ccc(SC(F)(F)F)cc2)cc1 (configuration not stated) | inactive: 10.9%
31 | Cc1cccc(C)c1OP(C)(N)=O (configuration not stated) | inactive: 39.4%
32 | COc1ccccc1OP(C)(=O)Nc1ccc(C)cc1 (configuration not stated) | inactive: 24%
33 | Cc1ccc(NP(C)(=O)Oc2ccccc2)c(C)c1 (configuration not stated) | inactive: 28.3%
34 | CCOC(=O)c1ccc(NP(C)(=O)Oc2ccccc2)cc1 (configuration not stated) | inactive: 5.3%
35 | Cc1cc(C)cc(OP(C)(N)=O)c1 (configuration not stated) | inactive: 16.4%
36 | COc1ccccc1OP(C)(=O)Nc1cc(Cl)ccc1C (configuration not stated) | inactive: 8.1%
37 | COc1ccc(OP(C)(=O)Nc2cccc(F)c2)cc1 (configuration not stated) | inactive: 10.6%
38 | CCN(CC)CCCOC(=O)C(O)(c1ccccc1)c1ccccc1 | inactive: 9.9%
39 | COc1ccccc1-c1ccccn1.O=[N+]([O-])c1cc([N+](=O)[O-])c(O)c([N+](=O)[O-])c1 | inactive: 15%
40 | CP(=O)(Nc1ccc(SC(F)(F)F)cc1)Oc1ccc(Cl)cc1 (configuration not stated) | inactive: 9.9%
41 | Cc1ccc(Nc2c([N+](=O)[O-])cc([N+](=O)[O-])cc2[N+](=O)[O-])cc1 | active: 48.9%
42 | Cc1cccc(C)c1OP(C)(=O)Nc1ccc(SC(F)(F)F)cc1 (configuration not stated) | inactive: 12.9%
43 | CP(=O)(Oc1ccccc1)OC(c1ccccc1)C(F)(F)F (configuration not stated) | inactive: 4.8%
44 | CCc1ccc(OP(C)(=O)N2CCN(c3ccc([N+](=O)[O-])cc3)CC2)cc1 (configuration not stated) | active: 43.3%
45 | CP(=O)(NC(=O)Nc1ccccc1)Oc1ccccc1 (configuration not stated) | inactive: 7.7%
46 | Cc1cc(C)cc(OP(C)(=O)Nc2ccc(SC(F)(F)F)cc2)c1 (configuration not stated) | inactive: 6.4%
47 | O=[N+]([O-])c1cc([N+](=O)[O-])c(O)c([N+](=O)[O-])c1.c1ccc(Oc2ccncc2)cc1 | inactive: 28%
48 | CCOC(=O)c1ccc(NP(C)(=O)Oc2ccc(OC)cc2)cc1 (configuration not stated) | inactive: 9.9%

Row | SMILES | inhibition
49 | CCOP(C)(=S)SCC(=O)NC(C)C(=O)O (configuration not stated) | inactive: 13%
50 | CP(=O)(Nc1ccccn1)Oc1ccc(Cl)cc1 (configuration not stated) | inactive: 6%
51 | CP(=S)(Nn1cnnc1)Oc1ccccc1 (configuration not stated) | inactive: 16.7%
52 | CP(=O)(Nc1ccccc1Br)Oc1ccccc1 (configuration not stated) | inactive: 11.7%
53 | COc1ccccc1OP(C)(=O)Nc1ccccc1 (configuration not stated) | inactive: -2.2%
54 | O=[N+]([O-])c1cc([N+](=O)[O-])c(Nc2nnnn2CCO)c([N+](=O)[O-])c1 | inactive: 35%
55 | CC1=C2N=C(C=C3N=C(C(C)=C4[N-][C@@](C)([C@@H]5N=C1[C@](C)(CCC(=O)NC[C@@H](C)OP(=O)([O-])O[C@H]1[C@@H](O)[C@@H](n6cnc7cc(C)c(C)cc76)O[C@@H]1CO)[C@H]5CC(N)=O)[C@@](C)(CC(N)=O)[C@@H]4CCC(N)=O)[C@@](C)(CC(N)=O)[C@@H]3CCC(N)=O)C(C)(C)[C@@H]2CCC(N)=O.[C-]#N.[Co+3] | active: 95.1%
56 | CCOC(=O)C(CC)C1=NC(C)(C)Cc2ccccc21.O=[N+]([O-])c1cc([N+](=O)[O-])c(O)c([N+](=O)[O-])c1 (configuration not stated) | inactive: 34.4%
57 | CN1CCCCC1COC(=O)C1(O)c2ccccc2CCc2ccccc21 (configuration not stated) | inactive: 15.6%
58 | COc1ccccc1OP(C)(=O)Nc1c(C)cccc1C (configuration not stated) | inactive: -1.8%
59 | COc1ccc(-c2ccccn2)cc1.O=[N+]([O-])c1cc([N+](=O)[O-])c(O)c([N+](=O)[O-])c1 | inactive: 6.2%
60 | CP(=O)(Nc1ccc(SC(F)(F)F)cc1)Oc1ccccc1 (configuration not stated) | inactive: 20%
61 | CCCOc1ccc(NP(C)(=O)Oc2ccc(Cl)cc2)cc1 (configuration not stated) | inactive: 4.7%
62 | O=[N+]([O-])c1cc([N+](=O)[O-])c(-n2nnc3ccccc32)c([N+](=O)[O-])c1 | inactive: 10.4%
63 | CN(Cc1cccnc1)C(=O)COc1ccc(Cl)c(Cl)c1.O=[N+]([O-])c1cc([N+](=O)[O-])c(O)c([N+](=O)[O-])c1 | inactive: 18.8%
64 | O=[N+]([O-])c1cc([N+](=O)[O-])c(-c2cnn(-c3ccccc3)c2)c([N+](=O)[O-])c1 | inactive: 30.3%
65 | Cc1nc2ccc3ccccc3c2s1.O=[N+]([O-])c1cc([N+](=O)[O-])c(O)c([N+](=O)[O-])c1 | inactive: 27%
66 | CCOC(=O)c1ccc(NP(C)(=O)Oc2cc(C)cc(C)c2)cc1 (configuration not stated) | inactive: 6.6%
67 | Cc1cc(C)cc(OP(C)(=O)Nc2ccc(C)cc2C)c1 (configuration not stated) | inactive: 14.5%
68 | Cc1ccc(C)c(NP(C)(=O)Oc2ccccc2)c1 (configuration not stated) | inactive: 6.6%
69 | CP(=O)(Nc1cccc(Br)c1)Oc1ccccc1 (configuration not stated) | inactive: 0.6%
70 | Cc1cc(C)cc(OP(C)(=O)Nc2ccccn2)c1 (configuration not stated) | inactive: -3.8%
71 | O=C(O)c1cccc(Nc2c([N+](=O)[O-])cc([N+](=O)[O-])cc2[N+](=O)[O-])c1 | inactive: 37.2%
72 | CC1=NCCc2c1[nH]c1ccccc21.O=[N+]([O-])c1cc([N+](=O)[O-])c(O)c([N+](=O)[O-])c1 | inactive: -128%
